Laboratory results: paper PMC11335280

Target: FGF12b-GFP-myc (UniProt P61328)
Assay: proximity ligation; DuoLink in situ PLA with anti-GFP and anti-ATP1A1 antibodies in fixed (4% PFA), permeabilised (0.1% Triton X-100) U2OS-FGF12a-GFP-myc or U2OS-FGF12b-GFP-myc cells; PLA signal in cytoplasm per cell

Substance: A1 subunit of Na(+)/K(+) ATPase (ATP1A1) (from UniProt P05023 1-1023) (natural protein)
- PLA spots, fewer than with FGF12a-GFP-myc: 50 % fewer
